From BindingDB's records for doi:10.7270/Q23J3G57 (n/a, 1994)
Structures can show the parent of a compound that is named as a salt.

Molecular target: 5-hydroxytryptamine receptor 4 (Rattus norvegicus) (UniProt Q62758)
Assay: Agonist activity against 5-HT4 receptor in rat esophageal muscularis mucosae

EC50: 794 nM
Structure (SMILES): CCN(CC)CCNC(=O)c1cc(Cl)c(N)cc1OC [4-amino-5-chloro-N-[2-(diethylamino)ethyl]-2-methoxy-benzamide;hydrochloride]
